Laboratory results taken from patent publication US20250114325A1 (JIANGSU PROVINCE HOSPITAL OF CHINESE MEDICINE, priority 2022, published 2025).

Legend:
[1] = tested on: Hela cells; assay: Cell proliferation experiment (CCK-8 cell viability); type: cell-based, human
Description: (§1) Assay of cell viability by CCK-8 kit: Cells (cell density: 1000 cells/well) were inoculated in a 96-well plate and cultured for 24 hours. […] Cell proliferation was detected using Cell Counting Kit-8 (CCK-8).

[2] = tested on: SiHa cells; assay: as above; type: cell-based, human
Description: as §1

[3] = tested on: P2X7 receptor protein
[4] = tested on: P2X7 receptor protein; remark: listed apart in the source

SMILES: C=C1CCC[C@]2(C)C=C3OC(=O)C(C)=C3C[C@@H]12 [Atr-I, Atractylenolide I]
- optimal inhibitory concentration against Hela cells [1]: 40 µM
- optimal inhibitory concentration against SiHa cells [2]: 80 µM
- expression of P2X7 receptor protein in SiHa cells [3]: Reduced expression of P2X7 receptor protein
- expression of P2X7 receptor protein in Hela cells [4]: Reduced expression of P2X7 receptor protein
